{
  "source": "IntAct's records for PubMed 20554658",
  "parents": {"B1": {"name": "Kelch-like protein 9 (Homo sapiens), Q9P2J3 (parent)", "chain": "MKVSLGNGEMGVSAHLQPCKAGTTRFFTSNTHSSVVLQGFDQLRIEGLLCDVTLVPGDGDEIFPVHRAMMASASDYFKAMFTGGMKEQDLMCIKLHGVNKVGLKKIIDFIYTAKLSLNMDNLQDTLEAASFLQILPVLDFCKVFLISGVSLDNCVEVGRIANTYNLIEVDKYVNNFILKNFPALLSTGEFLKLPFERLAFVLSSNSLKHCTELELFKAACRWLRLEDPRMDYAAKLMKNIRFPLMTPQDLINYVQTVDFMRTDNTCVNLLLEASNYQMMPYMQPVMQSDRTAIRSDSTHLVTLGGVLRQQLVVSKELRMYDERAQEWRSLAPMDAPRYQHGIAVIGNFLYVVGGQSNYDTKGKTAVDTVFRFDPRYNKWMQVASLNEKRTFFHLSALKGHLYAVGGRSAAGELATVECYNPRMNEWSYVAKMSEPHYGHAGTVYGGLMYISGGITHDTFQNELMCFDPDTDKWMQKAPMTTVRGLHCMCTVGDKLYVIGGNHFRGTSDYDDVLSCEYYSPTLDQWTPIAAMLRGQSDVGVAVFENKIYVVGGYSWNNRCMVEIVQKYDPEKDEWHKVFDLPESLGGIRACTLTVFPPEENPGSPSRESPLSAPSDHS"}},
  "data": [
    {"variants_of": "B1", "conditions": "with cul3_human CUL3, Q13618", "values": [
      {"variant": "L95F", "effect of a mutation on the interaction": "decreasing interaction strength"}
    ]}
  ]
}
